Values of other authors as cited in patent publication US20170107257A1, “CYCLIC APELIN ANALOGS” (LANTHIOPEP B.V., priority 2014, published 2017).

Molecular target: T1, hAPJ (Homo sapiens, UniProt P35414)
T1 sequence (P35414 1-380): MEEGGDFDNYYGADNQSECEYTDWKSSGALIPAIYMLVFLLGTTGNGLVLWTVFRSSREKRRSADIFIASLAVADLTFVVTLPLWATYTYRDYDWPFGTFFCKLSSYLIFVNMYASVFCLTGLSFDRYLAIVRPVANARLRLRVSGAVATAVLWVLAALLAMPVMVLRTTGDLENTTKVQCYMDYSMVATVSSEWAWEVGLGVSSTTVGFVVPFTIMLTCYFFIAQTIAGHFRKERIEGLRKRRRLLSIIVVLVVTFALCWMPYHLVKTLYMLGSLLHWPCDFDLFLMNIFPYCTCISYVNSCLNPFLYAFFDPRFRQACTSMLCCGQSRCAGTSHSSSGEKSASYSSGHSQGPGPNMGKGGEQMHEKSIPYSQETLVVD
Settings: read-out: EC50 activating the APJ receptor; cited from earlier work

apelin-36: bioactive peptide of 36 amino acids processed from the apelin pre-proprotein (LVQPRGSRNGPGPWQGGRRKFRRQRPRLSHKGPMPF; Apelin-36; UniProt Q9ULZ1 42-77, looked up)
EC50: 20 nM
